The record followed here is US20050209320A1 (priority 2003, published 2005).

Sequences of proteins named here, by UniProt entry; tags and fusion partners are left off. A change or cut given only in a name is not applied to a line headed by its entry.
UniProt P15207: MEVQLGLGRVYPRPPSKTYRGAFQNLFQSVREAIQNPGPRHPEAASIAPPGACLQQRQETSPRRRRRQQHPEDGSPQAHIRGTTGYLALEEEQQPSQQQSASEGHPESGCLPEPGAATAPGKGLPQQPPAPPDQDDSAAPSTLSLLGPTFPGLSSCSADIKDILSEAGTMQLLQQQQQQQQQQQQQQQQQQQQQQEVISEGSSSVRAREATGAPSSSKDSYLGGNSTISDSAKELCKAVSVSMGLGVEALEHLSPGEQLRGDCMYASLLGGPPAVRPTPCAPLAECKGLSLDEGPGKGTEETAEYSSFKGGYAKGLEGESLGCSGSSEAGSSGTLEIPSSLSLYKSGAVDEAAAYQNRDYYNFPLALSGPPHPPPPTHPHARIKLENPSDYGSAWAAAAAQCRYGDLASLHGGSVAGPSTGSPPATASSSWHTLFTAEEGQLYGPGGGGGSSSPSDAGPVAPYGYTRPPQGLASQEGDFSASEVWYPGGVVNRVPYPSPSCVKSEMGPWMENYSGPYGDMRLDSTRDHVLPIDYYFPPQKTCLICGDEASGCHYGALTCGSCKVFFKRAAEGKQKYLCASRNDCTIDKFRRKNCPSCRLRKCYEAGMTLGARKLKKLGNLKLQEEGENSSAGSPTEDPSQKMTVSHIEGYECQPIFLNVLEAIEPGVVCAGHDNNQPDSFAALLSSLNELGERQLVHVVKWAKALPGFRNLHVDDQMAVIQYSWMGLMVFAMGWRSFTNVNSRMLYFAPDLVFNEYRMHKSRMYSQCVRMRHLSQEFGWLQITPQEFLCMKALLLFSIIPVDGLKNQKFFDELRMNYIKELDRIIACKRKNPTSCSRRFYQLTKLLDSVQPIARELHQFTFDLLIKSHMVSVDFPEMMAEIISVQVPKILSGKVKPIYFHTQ

The target of one assay is Androgen Receptor (AR) (Rattus norvegicus, UniProt P15207). Briefly: Androgen Receptor (AR) binding affinity. To be noted: Table 3.
For assay [1], the system named is LNCaP prostate cancer cells (express AR). Briefly: Cell proliferation, MTS (CellTiter 96 AQueous One), LNCaP cells. The following applies: MTS method, FIG. 3.

On to `Cl.Oc1ccc(N(CCCl)CCCl)cc1`, for which, on Androgen Receptor (AR), the “Ki (nM)” value is “DNB”. Further, the “cytotoxicity in LNCaP cells” value in assay [1] was “partial cytotoxicity”.
